Values of other authors as cited in PMC4362760, “JAK2^V617F Drives Mcl-1 Expression and Sensitizes Hematologic Cell Lines to Dual Inhibition of JAK2 and Bcl-xL” (PLoS ONE, 2015).

Target: Bcl-2
Settings: cited from earlier work

CC1(C)CCC(c2ccc(Cl)cc2)=C(CN2CCN(c3ccc(C(=O)NS(=O)(=O)c4ccc(N[C@H](CCN5CCOCC5)CSc5ccccc5)c(S(=O)(=O)C(F)(F)F)c4)cc3)CC2)C1 [ABT-263]
Ki: < 1 nM
